# In patent US20070059309A1 (Genentech, published 2007):
# Protein sequences, listed by entry. Tags and fused reporters are not part of them. Residues count along the entry.
# UniProt P32881, 24-189 limits assumed: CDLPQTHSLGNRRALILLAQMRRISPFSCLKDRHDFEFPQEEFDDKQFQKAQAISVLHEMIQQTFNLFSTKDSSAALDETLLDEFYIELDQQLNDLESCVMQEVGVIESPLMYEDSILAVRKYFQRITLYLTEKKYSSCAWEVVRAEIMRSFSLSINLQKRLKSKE
# B1: murine anti-human IFN-α monoclonal antibody 9F3 (antibody, IgG2, V domains shown)
# VL: DIVLTQSPASLAVSLGQRATISCRASQSVSTSSYSYMHWYQQKPGQPPKVLISYASNLESGVPARFSGSGSGTDFTLNIHPVEEGDTATYFCQHSWGIPRTFGAGTKLELRR
# V domain: EVQLQQSGPELVKPGASVKISCKTSGYTFTEYIIHWVKQGHGRSLEWIGSINPDYDITNYNQRFKGKATLTLDKSSRTAYLELRSLTSEDSAVYYCASWISDFFDYWGQGTTLMVSA
# What was measured:
# recombinant human IFN-α8 [1] = biological target: T1, recombinant human IFN-α8 (human, UniProt P32881 24-189); test: cell-based or functional assay
# recombinant human IFN-α8 [2] = biological target: T1, recombinant human IFN-α8; test: cell-based or functional assay; remark: listed apart in the source
binder,measurement,setting,value
B1,"EC50 (read off the curve); neutralization of anti-viral activity, EMC virus / A549 cells [left panel]",recombinant human IFN-α8 [1],~0.4 µg/mL
same,"EC50 (read off the curve); neutralization of anti-viral activity, EMC virus / A549 cells",recombinant human IFN-α8 [2],~1 µg/mL
